These results are taken from PMC5346706, “Anti-metastatic effect of the TM4SF5-specific peptide vaccine and humanized monoclonal antibody on colon cancer in a mouse lung metastasis model” (Oncotarget, 2016).

The chains behind the UniProt entries cited, without tags or fusion partners. Where a name states a change or a piece, a line headed by the entry shows the natural chain unless it says otherwise.
UniProt O14894: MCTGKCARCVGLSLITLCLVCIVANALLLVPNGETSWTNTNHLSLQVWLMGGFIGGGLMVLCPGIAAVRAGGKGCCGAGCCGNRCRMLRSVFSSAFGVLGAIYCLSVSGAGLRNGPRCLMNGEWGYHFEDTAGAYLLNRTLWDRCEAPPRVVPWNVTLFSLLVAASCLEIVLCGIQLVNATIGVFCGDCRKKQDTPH

Experiment [1] deals with T1, cyclic peptide hTM4SF5EC2-C (human, disulfide bond between the two introduced cysteine residues (cyclic); biotinylated for the SPR).
T1 chain: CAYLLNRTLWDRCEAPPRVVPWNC
Nature of the experiment: SPR. (Surface plasmon resonance follows binding to a sensor surface in real time, without labels.)

Experiment [2] has as its target T2, Myc-tagged recombinant human TM4SF5 protein (Homo sapiens (Huh-7 cDNA), UniProt O14894).
T2 construct: human transmembrane 4 superfamily member 5 protein (TM4SF5); cDNA amplified from Huh-7 mRNA with the printed primers (5' primer holds the ATG); also called Myc-tagged hTM4SF5; hTM4SF5
The experiment can be described thus: western blotting; whole cell lysates of HEK 293F-EV and HEK 293F-TM4SF5 cells resolved on SDS-PAGE and probed with the antibody. The note with it: one partner purified. (In general: In western blotting, separated proteins are transferred to a membrane and probed.)

A word on the koff: it is a measure of how fast the partners let go of each other. Higher therefore signals a short-lived complex.

B1: humanized anti-TM4SF5 monoclonal antibody hEC2-C-2 (antibody, V domains shown)
VH: EVQLVESGGGLVQPGGSLRLSCAASGFSLTSYGVTWVRQAPGKGLEWLGVIWSDGSTNYQSALISRLTISRDNSKNTAYLQMNSLRAEDTAVYYCARPSNYYYFDYWGQGTLVTVSS
VL: DIQMTQSPSSLSASVGDRVTITCKSSQSLFDRRTRKTYLAWYQQKPGKAPKLLISWASTRESGVPSRFSGSGSGTDFTLTISSLQPEDFATYYCKQSYNLFTFGQGTKVEIK
In experiment [1], B1 came in with a koff of 1e-05 s⁻¹. In addition, in experiment [2], the binding result is on record as “binds”.
